This is an account of results in US20240166669A1, “QUINAZOLINE AMINE DERIVATIVES AS KRAS INHIBITORS” (Nikang Therapeutics, Inc., priority 2021, published 2024).

Chains of the proteins cited; added tags and fusions are not shown. Residues count along the entry.
UniProt P01116, 1-188 isoform 2 G12D: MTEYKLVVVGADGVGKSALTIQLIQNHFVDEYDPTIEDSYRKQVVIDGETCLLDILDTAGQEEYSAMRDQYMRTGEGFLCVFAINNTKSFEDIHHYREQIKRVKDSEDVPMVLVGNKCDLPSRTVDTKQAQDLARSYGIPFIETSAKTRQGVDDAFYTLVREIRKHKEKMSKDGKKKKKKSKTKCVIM

In this assay the target is K-Ras G12D (Homo sapiens, UniProt P01116, G12D). Nature of the assay: p-ERK Cellular 2-Plate Assay (Biological Example 2). As to conditions: read-out: AGS PERK EC50; AGS cells (KRAS G12D), 3 h treatment, AlphaLISA p-ERK1/2, 2-plate; Biological Example 2 (unmarked values); tested form: mixture of the two enantiomers (6aS,7aR). As to the method:
The ability of the compound of Formula (IIA′), (II′), or (II) or a pharmaceutically acceptable salt thereof (test compound) to inhibit K-Ras G12D activity was tested using AGS (Cobioer, CBP60476) cell lines which harbor KRAS G12D mutation as described below.
AGS (Cobioer, CBP60476) were seeded in 384-well plates and cultured overnight (10.000 cells per well 40 μl total volume). The following morning, cells were treated with test compound, with staring concentration at 10 μM and 3-fold dilution down to 0.5 nM for 3 h at 37° C., DMSO treatment served as control. p-ERK was then measured using AlphaLISA SureFire Ultra p-ERK1/2 (Thr202/Tyr204) Assay Kit (Perkin Elmer, cat #ALSU-PERK) following the manufacturer's instruction as follows.
Briefly, the culture medium was removed and 20 μl 1× lysis buffer was added to each well, followed by 30 minutes incubation on a plate shaker at room temperature. Then 10 μl of lysate was transferred to a white 384-well plate. Acceptor mixture was prepared according to manufacturer's instruction. 5 μl acceptor mixture was added to the cell lysate and the plate was wrapped with foil, spun at 500 rpm for 10 s, and incubated at RT for 60 min. Donor mixture was prepared under subdued light. […] Signal was then measured on a EnVision 2105 multimode plate reader. […]

Each structure is given as a SMILES string.

The term EC50 denotes the concentration at which the effect is half-maximal. With `C#Cc1c(F)ccc2cccc(-c3ncc4c(N5C[C@H]6CC[C@@H](C5)N6)nc(OC[C@]56CCCN5[C@H]5c7ccccc7OC[C@H]5C6)nc4c3F)c12`, the EC50 is 0.019 µM.
